Earlier results, collected in patent US4847295A, “Cycloalkyl-substituted 4-aminophenyl halo derivatives and process for their preparation” (Farmitalia Carlo Erba S.r.l., priority 1987, dated 1989).

System: aromatase
Settings: reported in literature; cited from earlier work

Structure (SMILES): CCC1(c2ccc(N)cc2)CCC(=O)NC1=O (stereo not shown) [Aminoglutethimide, aminoglutethimide]
- aromatase-inhibiting action (in words): more or less selective aromatase-inhibiting action
